Experimental findings from US20080009480A1, “CYCLOPENTA[b][1,4]DIAZEPINO[6,7,1-hi]INDOLES AND DERIVATIVES” (Wyeth, priority 2000, published 2008) are described below.

The chains behind the UniProt entries cited, without tags or fusion partners. Residues count along the entry.
UniProt P28335, 33-458: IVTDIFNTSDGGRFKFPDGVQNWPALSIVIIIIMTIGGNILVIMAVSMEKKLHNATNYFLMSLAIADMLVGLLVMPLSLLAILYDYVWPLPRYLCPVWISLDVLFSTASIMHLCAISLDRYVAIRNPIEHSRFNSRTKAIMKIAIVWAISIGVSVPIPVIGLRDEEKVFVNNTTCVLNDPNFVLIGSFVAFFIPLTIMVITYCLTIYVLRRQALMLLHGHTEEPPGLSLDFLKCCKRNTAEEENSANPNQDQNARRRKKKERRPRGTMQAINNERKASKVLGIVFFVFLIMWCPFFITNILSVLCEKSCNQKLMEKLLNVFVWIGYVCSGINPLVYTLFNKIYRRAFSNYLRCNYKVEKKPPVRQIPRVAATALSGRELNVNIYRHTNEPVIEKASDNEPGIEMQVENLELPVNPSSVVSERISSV

Test [1] has as its target human 5-hydroxytryptamine2C (h5HT2C) receptor (Homo sapiens, UniProt P28335). As to the kind of experiment: 5HT2C receptor binding test procedure ([125I]DOI displacement, CHO cell membranes). To be noted: reference compounds; [125I]DOI binding, h5HT2C in CHO membranes; read-out: Ki value and 95% confidence interval.
The next test deals with T1, human 5-HT2C receptor (Homo sapiens, UniProt P28335).
T1 construct: expressed in transfected cells; host or cells: CHO cells
As to the kind of experiment: Stimulation of [3H] inositol monophosphate production by 5HT2C agonists in transfected CHO cells. The class given is cell-based.

With `Clc1cccc(N2CCNCC2)c1` [mCPP, meta-chlorophenylpiperazine, reference compound], in test [1], the Ki came to 6.5 nM. Also, the “EMAX (relative to 5-HT)” value at human 5-HT2C receptor (reference compound, relative to 5-HT) turned out to be 60%. For the same molecule, at human 5-HT2C receptor (reference compounds, [3H]IP1 production, CHO cells with human 5-HT2C), a half-maximal response (EC50) required 46.8 nM.
